Data set [1] deals with N[C@H](Cc1ccccc1)C(=O)O. The following applies: Homo sapiens; 10 uM.
Data set [2] relates to N[C@@H](Cc1ccccc1)C(=O)O. Conditions: Homo sapiens; 10 uM.
Data set [3] deals with N[C@H](Cc1ccccc1)C(=O)O. The following applies: Homo sapiens; 10 uM. The source holds these as a separate data set.
Data set [4] concerns N[C@@H](Cc1ccccc1)C(=O)O. The following applies: Homo sapiens; 10 uM. This is another data set of the same source.
The test system of data set [5] is Sulfurihydrogenibium yellowstonense. The data set is described as follows: Activity of Sulfurihydrogenibium yellowstonense YO3AOP1 recombinant CA expressed in Escherichia coli BL21(DE3) after 15 mins by phenol red staining based stopped flow CO2 hydration assay.
Data set [6] shares this test system. Conditions: YO3AOP1, 10 uM.

As to “Carbonic anhydrase 1 (Homo sapiens), P00915”, the kcat came to 2.3 ×10⁵ /s in the data set with N[C@H](Cc1ccccc1)C(=O)O [1] and 19.8 ×10⁵ /s with N[C@@H](Cc1ccccc1)C(=O)O [2].
As for “Carbonic anhydrase 2 (Homo sapiens) (from UniProt P00918)”, the kcat came out at 5.2 ×10⁶ /s in the data set on N[C@H](Cc1ccccc1)C(=O)O [3] and 5.7 ×10⁶ /s with N[C@@H](Cc1ccccc1)C(=O)O [4].
As to `N[C@@H](Cc1ccccc1)C(=O)O`, the KA in data set [5] was found to be 0.008 µM. Also, the kcat in data set [6] amounted to 1.4 ×10⁷ /s.
On to `N[C@H](Cc1ccccc1)C(=O)O`, for which the KA in data set [5] was 5.13 µM. The kcat in data set [6] was 4.1 ×10⁶ /s.

The values are drawn from ChEMBL document CHEMBL2150956, “The first activation study of a bacterial carbonic anhydrase (CA). The thermostable α-CA from Sulfurihydrogenibium yellowstonense YO3AOP1 is highly activated by amino acids and amines” (Bioorg Med Chem Lett, 2012).
